Assay results as given in patent US20240108738A1, “BICYCLIC PEPTIDE LIGANDS SPECIFIC FOR NK CELLS” (Bicycle Tx Limited, priority 2021, published 2024).

Target: T1, CD16a/FCgRIIIa (F158 variant) (Homo sapiens, UniProt P08637)
T1 construct: host or cells: HEK293
Test: CD16a/FCgRIIIa HTRF assay (IgG competition on HEK293 cells)
Type: binding

In the case of `CCCC[C@H](N)C(=O)N[C@H]1CSCc2nc3nc(n2)CSC[C@H](NC(=O)[C@@H]2CCCN2C(=O)[C@H](CCC(=O)O)NC(=O)[C@H](CO)NC(=O)[C@H](CCc2ccccc2)NC(=O)[C@H](Cc2c[nH]cn2)NC(=O)[C@H](Cc2c[nH]c4ccccc24)NC(=O)[C@H](CCCNC(=N)N)NC1=O)C(=O)NCC(=O)N[C@@H](C)C(=O)N[C@@H](Cc1c[nH]c2ccccc12)C(=O)N[C@H](C(=O)N[C@@H](C)C(N)=O)CSC3` [BCY21695, [Nle]-(SEQ ID NO: 230)-A], the IC50 is reported as 100 nM.
